# Laboratory results: patent US20050148069A1, “IGF-1 instructs multipotent adult CNS neural stem cells to an oligodendroglial lineage” (priority 2003, published 2005)
# Test system: adult hippocampus-derived neural progenitor cells
# Assay: in vitro differentiation analysis of neural progenitor cells (immunocytochemistry for lineage markers)
# Format: cell-based, rat
# Protocol: The neural progenitor cells isolated from the hippocampus of female Fischer 344 used in this study have been characterized previously (Gage et al., 1995; Palmer et al., 1997). The whole brain-derived neural stem cells from PIO ICR mice were isolated and cultured according to the methods as described, with slight modifications. Cells were cultured as previously described (Gage et al., 1995; Ray et al., 1993). Cells between passages 10 and 20 were used for in vitro differentiation analyses. To induce differentiation, cells were plated into 4-well chamber slides at a density of 55,000-75,000 cells per well and were allowed to proliferate in N2-supplemented (Invitrogen) DMEM:F12 (Omega Scientific) medium containing 20 ng/ml FGF-2 (PeproTech, Inc.) for 24 hours. FGF-2 was then withdrawn and cells were subsequently treated with differentiation media. Differentiation conditions were either N2 medium with 1 μM RA (Sigma) and 1% FBS (Omega Scientific) for 4 days (mixed); 1 μM RA and 5 μM FSK (Sigma) for 4 days (neuronal), or 50 ng/ml LIF (Chemicon International Inc.) and 50 ng/ml BMP2 (R&D Systems) for 6 days (astrocytic) (Nakashima et al., 1999). For IGF-induction experiments, cells were trypsinized, washed with 1× PBS, and plated into insulin-free N2 medium. Either human recombinant IGF-I or IGF-II (500 ng/ml; R&D Systems) or insulin (500 ng/ml; Sigma) was added for 4 days, except when indicated otherwise. […]
# Cells were fixed with 4% paraformaldehyde, followed by immunocytochemical staining as described (Palmer et al., 1999). […] Quantification of cell phenotypes was with StereoInvestigator (MicroBrightfield Inc.); for each marker, 500-1000 cells were sampled systematically from standardized fields at 40×magnification. For quantification of live/dead cells, images were taken of cultures live-stained with propidum iodide (1 μg/ml; Molecular Probes) and Hoescht 33342 (1 μg/ml; Sigma) at 10×magnification, and cells were counted using Image-Pro (Media Cybernetics). […]
molecule,measurement,setting,value
"BMP2: bone morphogenetic protein-2 (R&D Systems) (protein, UniProt P12643 283-396, looked up) Bone morphogenetic protein 2: QAKHKQRKRLKSSCKRHPLYVDFSDVGWNDWIVAPPGYHAFYCHGECPFPLADHLNSTNHAIVQTLVNSVNSKIPKACCVPTELSAISMLYLDENEKVVLKNYQDMVVEGCGCR",oligodendrocyte differentiation at lower BMP2 concentrations,BMP2 0.05-0.5 ng/ml with 500 ng/ml IGF-I,partial differentiation could still be observed
same,oligodendrocyte differentiation at higher BMP2 concentrations,BMP2 5-50 ng/ml with 500 ng/ml IGF-I,greater suppression of oligodendrocyte differentiation
same,oligodendrocyte differentiation (RIP+ cells) vs IGF-I alone,"added in the presence of 500 ng/ml IGF-I, 4-day cultures",suppression of oligodendrocyte differentiation
